## AlphaSeq binding of Ab-14 light chain variants to a spike HR2 peptide

Binding partner: SARS-CoV-2 spike HR2 peptide, sequence PDVDLGDISGINAS.

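Designed CDR sequences, proposed from the first random library and measured here. Several design methods are mixed in this list. AlphaSeq pools MATa yeast showing the antibodies with MATalpha yeast showing the peptide. Pairs that bind mate more often; barcode pairs of the diploids are counted by sequencing. Each replicate has its own calibration line, from reference interactions of the BCL2 family. Each pool was mated in six replicate cultures.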

The variants keep the heavy chain, the linker and the frameworks of Ab-14 (scFv order VH, a (GGGGS)3 linker, VL).
VH: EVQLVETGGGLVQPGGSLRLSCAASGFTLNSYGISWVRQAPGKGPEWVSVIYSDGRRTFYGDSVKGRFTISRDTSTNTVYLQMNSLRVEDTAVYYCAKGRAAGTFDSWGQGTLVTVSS
VL: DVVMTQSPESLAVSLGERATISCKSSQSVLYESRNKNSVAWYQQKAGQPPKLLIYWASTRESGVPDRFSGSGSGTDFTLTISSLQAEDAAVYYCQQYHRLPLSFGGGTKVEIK

Variants are written as CDR1, CDR2 and CDR3 of the light chain (limits as in the source). Parent: KSSQSVLYESRNKNSVA, WASTRES, QQYHRLPLS.
Variants here have more than six changes.
Kd is apparent (estimated from mating counts) and averaged on the log scale over replicates with a signal. Smaller is tighter.
Where no diploid with the target was found in any replicate, the entry reads "no signal": below detection, most likely a poor binder, though not proof of it.

CDR-L1	CDR-L2	CDR-L3	Kd (apparent)	replicates with signal
MLSELVKMGSRNTNSVA	DNSTRGS	QQYDRLPLS	6.8 nM	6/6
KLYFNVGTMSHNTQSIA	DMERRED	QQYHRLPLS	3.9 nM	6/6
SVAMLLGQQYAKGANIA	EAAELVV	QQYYRLPLT	20 nM	6/6
KLSVSTSWLSVNKNSVA	EMSTRES	QQYDRLPLS	3.4 nM	6/6
TISMITSSFTQNINNVA	EVSTRCN	QQYDRLPLS	15 nM	6/6
HMRMDCYGYQNYGKAIA	HGNMRHN	QQYSRLPFS	110 nM	5/6
TLTQSVQMESHNKNSVA	DLSTRGS	QQYHRLPLS	1.4 nM	6/6
KHSIGVWGGDRNKNSVA	DASTRES	QQYHRLPLS	1.2 nM	6/6
KISQMVRVGATHSNSIA	EEVTRAK	QQYHRLPLS	2.3 nM	6/6
KLQQSQLYGSRNKNSVA	DASTRLV	QAYHRLPLS	4.5 nM	6/6
IISFVDAYESRNKNSIA	DQSTRGS	QQYDRLPLS	19 nM	6/6
KISMLYNFAQTNKNSIA	EMTTREE	QHYHRLPLS	45 nM	6/6
KLSMSWPMLWRNHNSVA	SASTRES	QQYHRLPLS	2.9 nM	6/6
QVQAFHEHEKDQNQAMA	EASMRDA	QQYERLPLS	1.3 nM	6/6
IVSQLMLWGMHVKNSIA	EAVTRVN	QQYERLPLF	54 nM	1/6
NLGYQQDGNGLQRQAVA	NVTMKEY	QQYGRLPLM	24 nM	6/6
IISQVDDYLSRNTNSIA	DQSTRGS	QQYDRLPLS	13 nM	6/6
KIGMTLNQLMQKKNNVA	DLVTRET	QQYHRLPLS	1.7 nM	6/6
KISQMTRVGSTHNNSIA	EEATRAK	QQYHRLPLF	93 nM	6/6
MMSQVTGLGQRHRNNVA	QTSEREP	QQYDRLPLV	3.7 nM	6/6
KLSQSVNMTGKNKNSVA	ELSFREQ	QQYERLPLS	84 nM	6/6
MLSQTKDYNYTAGNSVA	EVTEKCN	QQYKRLPLS	50 nM	4/6
KSSGMDLYESRNGNSVA	DASTRSD	QQYHRLPLS	1.4 nM	6/6
SLMQVGGYESNSHNSIA	DLRTRES	QQYHRLPLS	3.0 nM	6/6
IINLSPMDHQIHMDAIA	QEAIRNQ	QQYARLPLS	10 nM	6/6
KLMTSDLYESRNVNAVA	EASTRMD	QQYHRLPLS	4.0 nM	6/6
HMSAITLTGMRARNSVA	QMTTREN	QQYDRLPLS	5.1 nM	6/6
ILYDSVGTLQRNKNSVA	DNSTRES	QQYDRLPLS	no signal	0/6
KQSQSAWMEERNFNSVA	NASTRES	QQYHRLPLS	910 pM	6/6
KMSPSYLYEDRAFNSVA	NASTRES	QQYHRLPLS	2.6 nM	6/6
KISQFYEMESRNKNSVA	SASTRMV	QQYHRLPLS	1.3 nM	6/6
KLLQVTENMQLNRNSVA	HMSTRED	QQYHTLPLS	3.8 nM	6/6
KLSMQEMMESRNKNSVA	SANTREE	QQYHRLPLS	1.2 nM	6/6
KVEQSMDYESRNVNSVA	NASTRLK	QQYHRLPLS	2.6 nM	6/6
KFMMSGEYQMHEQNNIA	QGEIKFK	QQYFRLPIT	30 nM	6/6
KQQSSGMMGSRNKNSVA	SASKRES	QQYHRLPLS	6.4 nM	6/6
KIEQSVLYEDRNINSVA	NASQRYS	QAYHRLPLS	1.3 nM	6/6
KITGMWTFESHNKNSIA	EESTRED	QSYHRLPLS	4.7 nM	6/6
TISQSANQESHNKNSVA	DLSVRGS	QQYDRLPLS	450 nM	1/6
QVSITNNQGHAMEHNIA	EGTYAEE	QQYARLPLQ	5.9 nM	6/6
KLEMSQLYESRNKNNVA	SASHREH	QQYHRLPLS	490 pM	6/6
KMSQEVPLESRNVNSVA	MASTRLM	QQYHRLPLS	2.9 nM	6/6
MISQLYNMGSFAINSVA	QANLRNE	QQYDRLPLA	45 nM	6/6
MIEQGENEQEEHKNAIA	SGHERPR	QQYYKLPLV	3.9 nM	6/6
MLSQMTGLGQKVRNSVA	QASMRIN	QQYHRLPLM	no signal	0/6
KISQMVRVGSTHSNSIA	EEATRMK	QQYHRLPLA	no signal	0/6
KLSSLTGTEKVHGNNVA	EMETRER	QQYNRLPLA	8.0 nM	6/6
MVNQIMDHLSKQTNNVA	ETVTREE	QQYDRLPLS	no signal	0/6
QFNLALENSGHRMNNIA	EETMKPD	QQYVRLPLQ	28 nM	6/6
KLSMITGHMSMSKNNVA	EMVTREK	QQYNRLPLS	760 pM	6/6
VFSGQWDGVTTENSAVA	NVDERML	QQYNRLPLM	1.2 nM	6/6

Background: pairings of all light chain designs with three empty control strains gave a value in 4% of cases (median 430 nM, 5th percentile 38 nM). Values in that range, when seen in few replicates, are hard to tell from nonspecific mating.
Of ten entries with the parent sequence, four were seen in most replicates (averages 2.2 nM to 240 nM), three in one and three in none, so single entries are noisy.
The authors averaged sequences with at least three values out of six and counted those with two or fewer as poor binders.
The range of this assay differs from that of the first round, and the authors advise against merging the two.

Source: Li et al. 2023 (doi:10.1038/s41467-023-39022-2), MIT Lincoln Laboratory and A-Alpha Bio; data file from the FLAb repository.